Experimental data from PubChem BioAssay AID485 (The Scripps Research Institute Molecular Screening Center, 2006).
This is a selection; strong and weak results do not stand in their true shares. Calls of active or inactive are those of the source.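 How the source made its calls: active means inhibition above the plate cutoff, the mean inhibition of test wells on that plate plus 3 SD (cut at about 28% in these data); inactive means the rest.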

Amino acid sequences for entries named in this document (tags omitted).
UniProt Q99500, whole entry: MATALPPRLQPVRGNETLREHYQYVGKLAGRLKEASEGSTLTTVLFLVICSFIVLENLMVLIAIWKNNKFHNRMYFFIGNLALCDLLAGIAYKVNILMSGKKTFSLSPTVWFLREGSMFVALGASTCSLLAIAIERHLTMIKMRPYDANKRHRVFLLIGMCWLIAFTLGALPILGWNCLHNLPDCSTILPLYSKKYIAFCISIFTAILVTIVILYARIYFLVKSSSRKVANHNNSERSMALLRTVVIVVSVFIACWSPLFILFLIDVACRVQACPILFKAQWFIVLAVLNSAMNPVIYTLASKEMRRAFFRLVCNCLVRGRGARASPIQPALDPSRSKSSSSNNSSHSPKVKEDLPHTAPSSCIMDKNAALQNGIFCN

Target: Sphingosine 1-phosphate receptor 3 (Homo sapiens) (UniProt Q99500)
Assay: inhibition of S1P-stimulated S1P3 activation – cell-based, primary screen (AID 485);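 further: cells challenged with S1P at its EC80 of 0.8 µM; blue over green emission ratio from cleaved BLA substrate after 4 h stimulation; 0% = S1P-stimulated wells and 100% = unstimulated DMSO-only wells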
Details: CHO S1P3 NFAT-BLA reporter, FRET fluorescence, antagonist mode; at 4.98 µM; stronger effect = higher value

Structure (SMILES)	inhibition
CCOC(=O)c1ccc(NP(C)(=O)Oc2ccc(Cl)cc2)cc1 (centres undefined)	inactive: -2.07%
CP(=O)(Oc1ccccc1)N1CCOC1=O (centres undefined)	inactive: 7.5%
CCc1ccc(OP(C)(=O)Nc2cccnc2)cc1 (centres undefined)	inactive: -2.95%
COc1ccccc1OP(C)(=O)Nc1c(C)n(C)n(-c2ccccc2)c1=O (centres undefined)	inactive: -3.9%
O=C(OCCCN1CCCC1)C(O)(c1ccccc1)C1CCCCC1 (centres undefined)	inactive: 3.98%
COc1ccc(OP(C)(=O)Nc2ccc(Br)cc2)cc1 (centres undefined)	inactive: -3.37%
CN(C)C(=O)c1c([N+](=O)[O-])cc([N+](=O)[O-])cc1[N+](=O)[O-]	inactive: -3.53%
COc1ccccc1OP(C)(=O)Nc1ccccc1Br (centres undefined)	inactive: 3.46%
COc1ccccc1OP(C)(=O)Nc1ccc(Br)cc1 (centres undefined)	inactive: 2.76%
CP(=O)(Nc1ccccn1)Oc1ccccc1 (centres undefined)	inactive: -26.1%
O=[N+]([O-])c1cc([N+](=O)[O-])c(Nc2ccccn2)c([N+](=O)[O-])c1	inactive: 6.06%
COc1ccc(OP(C)(=O)Nc2ccccc2Br)cc1 (centres undefined)	inactive: -2.54%
COc1ccccc1OP(C)(=O)Nc1ccc(C)c(C)c1 (centres undefined)	inactive: -8.9%
Cc1cc(C)cc(OP(C)(=O)Nc2cccc(C(F)(F)F)c2)c1 (centres undefined)	inactive: 8.56%
CP(=O)(OCCOc1ccccc1)OCCOc1ccccc1	inactive: 6.36%
CP(=O)(Nc1ccc(Cl)cc1Cl)Oc1ccccc1 (centres undefined)	inactive: -14.2%
Cc1nc2ccc3ccccc3c2o1.O=[N+]([O-])c1cc([N+](=O)[O-])c(O)c([N+](=O)[O-])c1	inactive: -13.6%
COc1ccc(OP(C)(=O)Nc2ccc(SC(F)(F)F)cc2)cc1 (centres undefined)	inactive: -18.2%
CCOC(=O)c1ccc(NP(C)(=O)Oc2ccc(F)cc2)cc1 (centres undefined)	inactive: -4.9%
CCCCCOc1ccc(NP(C)(=O)Oc2ccc(Cl)cc2Cl)cc1 (centres undefined)	inactive: -7.64%
CC(C)c1ccc(OP(C)(=O)Nc2ccc(SC(F)(F)F)cc2)cc1 (centres undefined)	inactive: 11.6%
CP(=O)(Nc1ccccc1F)Oc1ccccc1 (centres undefined)	inactive: 9.3%

Structure (SMILES)	inhibition
O=C(OCCN1CCN(CCOCc2ccccc2)CC1)C(O)(c1ccccc1)c1ccccc1	inactive: 12.1%
O=C(OC1CN2CCC1CC2)c1ccc([N+](=O)[O-])cc1 (centres undefined)	inactive: 0.4%
CCOP(C)(=S)SCC(=O)NC(C)(CC)C(=O)O (centres undefined)	inactive: -10%
CP(=O)(Nc1ccc(SC(F)(F)F)cc1)Oc1ccc(F)cc1 (centres undefined)	inactive: 0.93%
Cc1ccccc1NP(C)(=O)Nc1ccccc1C	inactive: -28.9%
COc1ccc(NP(C)(=O)Oc2ccccc2OC)cc1 (centres undefined)	inactive: -6.91%
CN(C)CCOC(=O)C(O)(c1ccccc1)C1CCCCC1 (centres undefined)	inactive: -6%
O=[N+]([O-])c1cc([N+](=O)[O-])c(NCC2CCS(=O)(=O)C2)c([N+](=O)[O-])c1 (centres undefined)	inactive: 12.1%
Cc1cc(-c2cccc3ccccc23)c(C)cn1.O=[N+]([O-])c1cc([N+](=O)[O-])c(O)c([N+](=O)[O-])c1	inactive: -2.39%
O=[N+]([O-])c1ccc(OP2(=O)COCCO2)cc1 (centres undefined)	inactive: 5.8%
O=[N+]([O-])c1cc([N+](=O)[O-])c(Nc2nnnn2CCO)c([N+](=O)[O-])c1	inactive: 3.32%
CCOC(=O)C(CC)C1=NC(C)(C)Cc2ccccc21.O=[N+]([O-])c1cc([N+](=O)[O-])c(O)c([N+](=O)[O-])c1 (centres undefined)	inactive: -3.2%
CP(=O)(Nc1ccc(SC(F)(F)F)cc1)Oc1ccccc1 (centres undefined)	inactive: 7.75%
CCCOc1ccc(NP(C)(=O)Oc2ccc(Cl)cc2)cc1 (centres undefined)	inactive: -11.2%
CN1CCCCC1COC(=O)C1(O)c2ccccc2CCc2ccccc21 (centres undefined)	inactive: 18.6%
O=[N+]([O-])c1cc([N+](=O)[O-])c(-n2nnc3ccccc32)c([N+](=O)[O-])c1	inactive: 8.5%
Cc1nc2ccc3ccccc3c2s1.O=[N+]([O-])c1cc([N+](=O)[O-])c(O)c([N+](=O)[O-])c1	inactive: -5.6%
CCOC(=O)c1ccc(NP(C)(=O)Oc2cc(C)cc(C)c2)cc1 (centres undefined)	inactive: 3.1%
COc1ccccc1OP(C)(=O)Nc1cccc(Br)c1 (centres undefined)	inactive: 0.55%
CP(=O)(Nc1cccc(Br)c1)Oc1ccccc1 (centres undefined)	inactive: -5.94%
Cc1ccc(C)c(NP(C)(=O)Oc2ccccc2)c1 (centres undefined)	inactive: -10.5%
O=C(O)c1cccc(Nc2c([N+](=O)[O-])cc([N+](=O)[O-])cc2[N+](=O)[O-])c1	inactive: -26.4%

Structure (SMILES)	inhibition
CC1=NCCc2c1[nH]c1ccccc21.O=[N+]([O-])c1cc([N+](=O)[O-])c(O)c([N+](=O)[O-])c1	inactive: -4.12%
CC(C)(C)c1ccc(OP(C)(=O)Nc2ccc(SC(F)(F)F)cc2)cc1 (centres undefined)	inactive: -0.24%
Cc1cccc(C)c1OP(C)(N)=O (centres undefined)	inactive: -3.01%
O=[N+]([O-])c1ccc2c(c1)C=Nc1ccccc1O2	inactive: -8.99%
COc1ccccc1OP(C)(=O)Nc1cc(Cl)ccc1C (centres undefined)	inactive: -1.89%
Cc1cc(C)cc(OP(C)(N)=O)c1 (centres undefined)	inactive: -12.9%
CCOC(=O)c1ccc(NP(C)(=O)Oc2ccccc2)cc1 (centres undefined)	inactive: 5.01%
COc1ccccc1OP(C)(=O)Nc1ccc(C)cc1 (centres undefined)	inactive: -30.7%
Cc1ccc(NP(C)(=O)Oc2ccccc2)c(C)c1 (centres undefined)	inactive: 19.3%
CCN(CC)CCCOC(=O)C(O)(c1ccccc1)c1ccccc1	inactive: 13.8%
CCc1ccc(OP(C)(=O)N2CCN(c3ccc([N+](=O)[O-])cc3)CC2)cc1 (centres undefined)	inactive: -0.96%
Cc1cc(C)cc(OP(C)(=O)Nc2ccc(SC(F)(F)F)cc2)c1 (centres undefined)	inactive: -1.16%
Cc1cccc(C)c1OP(C)(=O)Nc1ccc(SC(F)(F)F)cc1 (centres undefined)	inactive: -10.9%
CP(=O)(Nc1ccc(SC(F)(F)F)cc1)Oc1ccc(Cl)cc1 (centres undefined)	inactive: 1.04%
CP(=O)(Oc1ccccc1)OC(c1ccccc1)C(F)(F)F (centres undefined)	inactive: -20%
CCOP(C)(=S)SCC(=O)NC(C)C(=O)O (centres undefined)	inactive: -8.2%
CCOC(=O)c1ccc(NP(C)(=O)Oc2ccc(OC)cc2)cc1 (centres undefined)	inactive: 11.6%
COc1ccccc1OP(C)(=O)Nc1ccccc1 (centres undefined)	inactive: -9.99%
CP(=O)(Nc1ccccc1Br)Oc1ccccc1 (centres undefined)	inactive: 0.89%
CP(=S)(Nn1cnnc1)Oc1ccccc1 (centres undefined)	inactive: 5.3%
